Measurements as given in patent US4870071A, “Prophylactic and therapeutic agnet for hepatic disorder” (Senju Pharmaceutical Co., Ltd., priority 1986, dated 1989).

Tests used:
mice = assay: Acute toxicity in mice, intravenous injection (LD50); details: mice, male
Description: (§1) Acute toxicity of the compounds according
(§2) to the invention in terms of LD50
(§3) Referring to the above table, the injection No. 1 was adjusted to pH 7.0-7.2 by adding sodium carbonate after dissolution of the sample.

[1] = as above; details: mouse, in vivo, iv, LD50, mice
Description: as §1, §2, §3

O=C(O)C1CSC(C(O)C(O)C(O)C(O)C(=O)O)N1 (centres unmarked) [Dipotassium salt]
LD50 (mice): 250 mg/kg

O=C(O)C1CSC(C(O)C(O)C(O)C(O)C(=O)O)N1 (centres unmarked) [Monosodium salt, Monosodium cysteineglucuronate]
LD50 ([1]; male and female, injection adjusted to pH 7.0-7.2 with sodium carbonate): 2500 mg/kg

O=C(O)C1CSC(C(O)C(O)C(O)C(O)C(=O)O)N1 (centres unmarked) [CGMg, Magnesium cysteineglucuronate]
LD50 (mice; listed as Magnesium salt): 250 mg/kg

O=C(O)C1CSC(C(O)C(O)C(O)C(O)C(=O)O)N1 (centres unmarked) [CGCa, Calcium cysteineglucuronate]
LD50 ([1]; female): 200 mg/kg
LD50 ([1]; male): 100 mg/kg

Counter-ions that a name gives are not always drawn.
